Results on five compounds are retold here after ChEMBL document CHEMBL6078650, “A Phenotypic High-Throughput Screen Identifies Small Molecule Modulators of Endogenous RGS10 in BV-2 Cells” (J Med Chem, 2024).

Molecules are shown by their SMILES.

This assay deals with BV-2. Nature of the assay: Reversal of IFNgamma-induced RGS10 silencing in mouse single close BV-2 cells assessed as RGS10 protein level by measuring luminescence signal measured after 24 hrs by Nano-Glo HiBit Lytic detection assay. In kind it is functional, cell-based. In general terms: The HiBiT peptide binds its large partner to form an active luciferase.
Regarding `Cc1cc(C)c2c(=O)cc(CN(Cc3ccccc3)Cc3ccco3)[nH]c2c1`, the Activity result is “Dose-dependent-effect”. The entry for `CCc1cc(-c2csc(S(=O)(=O)Nc3ccc(C)cc3Br)c2)on1` is “Dose-dependent-effect”. The entry for `Cc1oc(-c2ccc(Cl)cc2)nc1CN1CCCC(C(=O)N2CCN(C(=O)c3ccco3)CC2)C1` (stereo not given) is “Dose-dependent-effect”; for `O=C(CN1C(=O)NC(c2ccc(Cl)cc2)C2=C1COC2=O)Nc1cc(F)cc(F)c1` (stereo not given) it is “Dose-dependent-effect”; for `O=C(CN1C(=O)NC(c2ccc(Cl)cc2)C2=C1COC2=O)Nc1ccc(F)c(F)c1` (stereo not given) it is “Dose-dependent-effect”.
